# Experiments:
# The chains behind the UniProt entries cited, without tags or fusion partners.
# UniProt P33535, whole entry, looked up: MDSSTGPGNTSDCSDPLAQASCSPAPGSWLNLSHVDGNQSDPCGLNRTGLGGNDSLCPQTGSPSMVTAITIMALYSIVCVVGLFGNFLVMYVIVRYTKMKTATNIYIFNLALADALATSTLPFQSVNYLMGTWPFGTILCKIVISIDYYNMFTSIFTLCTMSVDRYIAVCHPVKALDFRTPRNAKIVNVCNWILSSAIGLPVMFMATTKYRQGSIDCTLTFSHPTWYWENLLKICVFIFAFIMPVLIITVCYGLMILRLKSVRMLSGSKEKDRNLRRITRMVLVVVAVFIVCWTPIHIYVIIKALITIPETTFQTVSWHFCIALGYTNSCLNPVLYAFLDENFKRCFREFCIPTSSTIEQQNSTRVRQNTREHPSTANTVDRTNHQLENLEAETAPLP
# UniProt P33533, whole entry, looked up: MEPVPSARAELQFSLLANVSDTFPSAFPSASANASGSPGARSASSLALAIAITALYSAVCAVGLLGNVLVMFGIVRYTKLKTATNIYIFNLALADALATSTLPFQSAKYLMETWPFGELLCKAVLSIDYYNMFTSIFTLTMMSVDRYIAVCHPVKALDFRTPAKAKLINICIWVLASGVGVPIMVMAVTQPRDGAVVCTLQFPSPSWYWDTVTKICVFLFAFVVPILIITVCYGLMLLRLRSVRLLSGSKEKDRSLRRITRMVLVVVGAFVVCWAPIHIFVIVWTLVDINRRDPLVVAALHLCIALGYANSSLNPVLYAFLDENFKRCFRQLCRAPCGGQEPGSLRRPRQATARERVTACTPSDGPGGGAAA
# [1] = Effect on spontaneous locomotion in mouse assessed as reduction in distance travelled at 3.4 mg/kg, ip administered for 3 hrs; details: in vivo
# [2] = Effect on spontaneous locomotion in mouse assessed as reduction in distance travelled at 0.5 mg/kg, ip administered for 3 hrs; details: in vivo
# [3] = Volume of distribution at steady state in Sprague-Dawley rat at 1 mg/kg, iv administered as single dose by LC-MS/MS analysis; details: in vivo
# [4] = Half life in Sprague-Dawley rat at 1 mg/kg, iv administered as single dose by LC-MS/MS analysis; details: in vivo
# [5] = Half life in Sprague-Dawley rat at 10 mg/kg, po administered as single dose by LC-MS/MS analysis; details: in vivo
# [6] = Effect on spontaneous locomotion in mouse assessed as reduction in distance travelled at 0.5 mg/kg, po administered for 3 hrs; details: in vivo
# [7] = Effect on spontaneous locomotion in mouse assessed as reduction in distance travelled at 1 mg/kg, ip administered for 3 hrs; details: in vivo
# [8] = Effect on spontaneous locomotion in mouse assessed as reduction in distance travelled at 7.5 mg/kg, ip administered for 2 hrs; details: in vivo
# [9] = Aqueous solubility of the compound; details: buffer
# Mu-type opioid receptor = Mu-type opioid receptor (Rattus norvegicus, UniProt P33535); assay: Displacement of [3H]DAMGO from rat mu opioid receptor expressed in CHO cell membrane measured after 30 mins by liquid scintillation counting method
# [10] = biological target: Delta-type opioid receptor (Rattus norvegicus, UniProt P33533); assay: Displacement of [3H]DPDPE from rat delta opioid receptor expressed in CHO cell membrane measured after 30 mins by liquid scintillation counting method
# Mus musculus [11] = assay: Antinociceptive activity in ip dosed Kunming mouse assessed as reduction in acetic acid induced writhing signs measured after 15 mins by abdominal constriction test; details: 0.25 h
# Mus musculus [12] = assay: Antinociceptive activity in ip dosed Kunming mouse by hot plate test
smiles,measurement,setting,value
COc1ccc(CNc2cccc([C@H]3C[C@@]45CC[C@]3(OC)[C@@H]3Oc6c(OC)ccc7c6[C@@]34CCN(CC3CC3)[C@@H]5C7)c2)cc1,Activity,[1],Non-Toxic
same,Activity,[2],Non-Toxic
same,Vdss,[3],3.54 L/kg
same,t1/2,[4],1.25 h
same,t1/2,[5],9.89 h
same,Activity,[6],Non-Toxic
COc1ccc2c3c1O[C@H]1[C@@]4(OC)CC[C@@]5(C[C@@H]4c4ccc(NC(=O)c6ccccc6)cc4)[C@@H](C2)N(CC2CC2)CC[C@]315,Activity,[7],Non-Toxic
same,Vdss,[3],12.7 L/kg
same,t1/2,[4],4.62 h
same,t1/2,[5],5.15 h
COc1ccc2c3c1O[C@H]1[C@@]4(OC)C=C[C@@]5(C[C@@H]4C(=O)c4ccccc4)[C@@H](C2)N(CC2CC2)CC[C@]315,Activity,[8],Toxic
COc1ccc2c3c1O[C@H]1[C@@]4(OC)CC[C@@]5(C[C@@H]4c4ccc(NC(=O)c6ccccc6)cc4)[C@@H](C2)N(CC2CC2)CC[C@]315.Cl,solubility,[9],< 500 µg/mL
CN(C(=O)Cc1ccc(Cl)c(Cl)c1)[C@H]1CCCC[C@@H]1N1CCCC1,Ki,Mu-type opioid receptor,1.4 µM
same,Ki,[10],> 5 µM
same,ED50,Mus musculus [11],0.89 mg/kg
same,ED50,Mus musculus [12],4.42 mg/kg
COc1ccc(CNc2cccc([C@H]3C[C@@]45CC[C@]3(OC)[C@@H]3Oc6c(OC)ccc7c6[C@@]34CCN(CC3CC3)[C@@H]5C7)c2)cc1.Cl,solubility,[9],10000 µg/mL

# From ChEMBL document CHEMBL4840326, “Discovery of an M-Substituted N-Cyclopropylmethyl-7α-phenyl-6,14-endoethanotetrahydronorthebaine as a Selective, Potent, and Orally Active κ-Opioid Receptor Agonist with an Improved Central Nervous System Safety Profile” (2021)
